The values that follow come from ChEMBL document CHEMBL1125721, “Highly selective kappa opioid analgesics. 4. Synthesis of some conformationally restricted naphthalene derivatives with high receptor affinity and selectivity” (1991).

By UniProt entry, the sequences of proteins in these tests, tags left out.
UniProt P97266, whole entry: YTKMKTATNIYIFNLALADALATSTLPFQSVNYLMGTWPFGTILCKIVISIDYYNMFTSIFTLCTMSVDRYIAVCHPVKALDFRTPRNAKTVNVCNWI

The target of this assay is Mu-type opioid receptor (Cavia porcellus) (UniProt P97266). Briefly: Ratio measured as the Ki(kappa) to that of Ki(mu) values.

For `CN(C(=O)Cc1cccc2occc12)[C@H]1CCC2(CCCO2)C[C@@H]1N1CCCC1` (stereo partly specified), the Ratio was 1520.
